Source: PubChem BioAssay (NCI)
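All cell lines were grown in 96-well plates and treated with compound for 48 hours. TGI marks complete inhibition of growth.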

Assays:
Assay in all cases: growth of human tumour cells (NCI), 48 h
SNB-19 CNS = test system: SNB-19 CNS
SK-MEL-28 melanoma = test system: SK-MEL-28 melanoma
SF-268 CNS = test system: SF-268 CNS
NCI-H522 lung = test system: NCI-H522 lung
MCF7 breast = test system: MCF7 breast
MDA-MB-231 breast = test system: MDA-MB-231 breast
HL-60(TB) leukemia = test system: HL-60(TB) leukemia
OVCAR-8 ovarian = test system: OVCAR-8 ovarian
MDA-MB-435 = test system: MDA-MB-435
HCT-15 colon = test system: HCT-15 colon
DU-145 prostate = test system: DU-145 prostate
BT-549 breast = test system: BT-549 breast
786-0 renal = test system: 786-0 renal
HT29 colon = test system: HT29 colon
SN12C renal = test system: SN12C renal
SF-539 CNS = test system: SF-539 CNS
UO-31 renal = test system: UO-31 renal
COLO 205 colon = test system: COLO 205 colon
OVCAR-4 ovarian = test system: OVCAR-4 ovarian
HOP-62 NSCLC = test system: HOP-62 NSCLC
U251 CNS = test system: U251 CNS
HCC-2998 colon = test system: HCC-2998 colon
NCI-H460 lung = test system: NCI-H460 lung
SW-620 colon = test system: SW-620 colon
CAKI-1 renal = test system: CAKI-1 renal
PC-3 prostate = test system: PC-3 prostate
HCT-116 colon = test system: HCT-116 colon
RXF 393 renal = test system: RXF 393 renal
M14 melanoma = test system: M14 melanoma
UACC-62 melanoma = test system: UACC-62 melanoma
EKVX NSCLC = test system: EKVX NSCLC
HS 578T breast = test system: HS 578T breast
NCI/ADR-RES ovarian = test system: NCI/ADR-RES ovarian
SNB-75 CNS = test system: SNB-75 CNS
T-47D breast = test system: T-47D breast
SK-MEL-5 melanoma = test system: SK-MEL-5 melanoma
SK-OV-3 ovarian = test system: SK-OV-3 ovarian
NCI-H226 lung = test system: NCI-H226 lung
SF-295 CNS = test system: SF-295 CNS
A498 renal = test system: A498 renal
KM12 colon = test system: KM12 colon
ACHN renal = test system: ACHN renal
NCI-H322M lung = test system: NCI-H322M lung
SR leukemia = test system: SR leukemia
A549 NSCLC = test system: A549 NSCLC
MDA-N = test system: MDA-N
RPMI-8226 leukemia = test system: RPMI-8226 leukemia
SK-MEL-2 melanoma = test system: SK-MEL-2 melanoma
LOX IMVI melanoma = test system: LOX IMVI melanoma
UACC-257 melanoma = test system: UACC-257 melanoma
TK-10 renal = test system: TK-10 renal
MOLT-4 leukemia = test system: MOLT-4 leukemia
IGROV1 ovarian = test system: IGROV1 ovarian
OVCAR-3 ovarian = test system: OVCAR-3 ovarian
HOP-92 NSCLC = test system: HOP-92 NSCLC
OVCAR-5 ovarian = test system: OVCAR-5 ovarian

Measured: TGI

NCCC(N)CSP(=O)(O)O (stereo unspecified)
> 100 µM: all assays above
